Data on one compound can be found in patent publication US20040014721A1, “Method for using tethered bis(polyhydroxyphenyls) and O-alkyl derivatives thereof in treating inflammatory conditions of the central nervous system” (Oklahoma Medical Research Foundation, priority 2002, published 2004).

The experiment has as its system TNFα-Stimulated NO2^− Production in EOC-20 Cells. As to the kind of experiment: TNFα-stimulated nitrite (NO2−) production in EOC-20 microglial cells, Griess assay. It is filed as cell-based. Conditions: Mus musculus, 24 h. (Griess reagent forms a coloured azo dye with nitrite.)

Molecules are shown by their SMILES.

By IC50 is commonly meant the concentration that inhibits the measured activity by half. Lower therefore signals higher potency. The compound `Nc1nc2ccc(OC(F)(F)F)cc2s1` [Riluzole] came in with an IC50 of 95 µM.
